Test [1] relates to BgNav1. In words: Two-electrode voltage clamp, BgNav1 expressed in Xenopus laevis oocytes. Format: cell-based, Blattella germanica. The note with it: ex vivo, I30ms/Ipeak, Hill fit, n ≥ 3, highest tested concentration 50 μM. Background: In two-electrode clamp one electrode senses voltage and the other passes current.
Test [2] has as its target T1, hNaV1.5 (Homo sapiens, UniProt Q14524).
T1 construct: expressed in transfected cells; host or cells: Xenopus laevis oocytes (cRNA injection)
The test can be described thus: Two-electrode voltage clamp, Nav1.5 in Xenopus laevis oocytes. Format: cell-based. The note with it: ex vivo, two-electrode voltage clamp in Xenopus laevis oocytes, Hill fit, n ≥ 3; highest tested concentration 50 μM. The protocol: For the expression of NaV channels (hNav1.1, rNaV1.2, rNaV1.3, rNaV1.4, hNaV1.5, hNaV1.6, hNav1.7, and the insect channel BgNaV1) in Xenopus laevis oocytes, the linearized plasmids were transcribed using the T7 or SP6 mMESSAGE-mMACHINE transcription kit (Ambion, Carlsbad, CA, USA). The harvesting of stage V and VI oocytes from an anaesthetized female X. laevis frog was described previously. , Oocytes were injected with 50 nL of cRNA at a concentration of 1 ng/nL using a microinjector (Drummond Scientific, Broomall, PA, USA). The oocytes were incubated in a solution containing 96 mM NaCl, 2 mM KCl, 1.8 mM CaCl2, 2 mM MgCl2, and 5 mM HEPES (pH 7.4), supplemented with 50 mg/L gentamycin sulfate. Two-electrode voltage-clamp recordings were performed at room temperature (18–22 °C) using a Geneclamp 500 amplifier (Molecular Devices, Downingtown, PA, USA) controlled by a pClamp data acquisition system (Axon Instruments, Union City, CA, USA). Whole-cell currents from oocytes were recorded 1–4 days after injection. The bath solution composition was 96 mM NaCl, 2 mM KCl, 1.8 mM CaCl2, 2 mM MgCl2, and 5 mM HEPES (pH 7.4). Voltage and current electrodes were filled with 3 M KCl. The resistances of both electrodes were kept between 0.8 and 1.5 MΩ. The elicited Nav channel currents were filtered at 1 kHz and sampled at 20 kHz by using a four-pole low-pass Bessel filter. Leak subtraction was performed using a −P/4 protocol. For the electrophysiological analysis of toxins, a series of protocols was applied from a holding potential of −90 mV with a start-to-start interval of 0.2 Hz. Sodium current traces were evoked by 100 ms depolarizations to V max (the voltage corresponding to maximum sodium current in control conditions).
To assess the concentration–response relationships, data were fitted with the Hill equation: y = 100/[1 + (EC50/[toxin])^ h ], where y is the amplitude of the toxin-induced effect (y = I 30 ms/I peak where I 30 ms is the current value at 30 ms in the presence of toxin and I peak is the peak current amplitude in control conditions), EC50 is the toxin concentration at half-maximal efficacy, [toxin] is the toxin concentration, and h is the Hill coefficient. Potassium and calcium currents were evoked by a 500 ms depolarization to the voltage corresponding to the maximal activation of the channels in control conditions from a holding potential of −90 mV. Elicited currents were sampled at 1 kHz and filtered at 0.5 kHz. For nAChR experiments, the oocytes were clamped at a holding potential of −70 mV and continuously superfused with ND96 via gravity-fed tubes at 0.1–0.2 mL min^–1, with 5 min incubation times for the bath-applied peptides. ACh was applied via gravity-fed tubes until a peak current amplitude was obtained (1–3 s), with 1–2 min washout periods between applications. The nAChR were gated by a particular time duration pulse of ACh for the respective nAChR subtype at 2 mL min^–1. Data were sampled at 500 Hz and filtered at 200 Hz. ASIC1a currents were measured in ND96 solutions at a pH of 7.4 and 4.5, at a holding potential of −70 mV during 400 s, and the data were filtered at 20 Hz. EnaC currents were measured by clamping oocytes at a holding potential of −60 mV and perfusing with low- (1 mM) and high- (96 mM) sodium ND96. Opioid currents were measured by clamping the potential to −70 mV and changing the perfusion solution from ND96 to high-potassium (HK) solution composed of 96 mM KCl, 2 mM NaCl, 1 mM MgCl2, 1.8 mM CaCl2, and 5 mM HEPES, with a final pH of 7.5. The HK-evoked increase in inward K^+ currents represents a “basal” K^+ current (IK, basal). In the presence of HK, 0.2 μM morphine was applied to oocytes and then washed out by HK. TRPV1 and TRPA1 currents were continuously monitored in a perfusing ND96 solution, following a protocol at −90 mV for 400 s. The sampling rate was set at 100 Hz, and the signals were filtered at 20 Hz. One μM capsaicin and 10 μM capsazepine were used for TRPV1. […]

Amino acid sequences for entries named in this document (tags omitted).
UniProt Q14524, whole entry: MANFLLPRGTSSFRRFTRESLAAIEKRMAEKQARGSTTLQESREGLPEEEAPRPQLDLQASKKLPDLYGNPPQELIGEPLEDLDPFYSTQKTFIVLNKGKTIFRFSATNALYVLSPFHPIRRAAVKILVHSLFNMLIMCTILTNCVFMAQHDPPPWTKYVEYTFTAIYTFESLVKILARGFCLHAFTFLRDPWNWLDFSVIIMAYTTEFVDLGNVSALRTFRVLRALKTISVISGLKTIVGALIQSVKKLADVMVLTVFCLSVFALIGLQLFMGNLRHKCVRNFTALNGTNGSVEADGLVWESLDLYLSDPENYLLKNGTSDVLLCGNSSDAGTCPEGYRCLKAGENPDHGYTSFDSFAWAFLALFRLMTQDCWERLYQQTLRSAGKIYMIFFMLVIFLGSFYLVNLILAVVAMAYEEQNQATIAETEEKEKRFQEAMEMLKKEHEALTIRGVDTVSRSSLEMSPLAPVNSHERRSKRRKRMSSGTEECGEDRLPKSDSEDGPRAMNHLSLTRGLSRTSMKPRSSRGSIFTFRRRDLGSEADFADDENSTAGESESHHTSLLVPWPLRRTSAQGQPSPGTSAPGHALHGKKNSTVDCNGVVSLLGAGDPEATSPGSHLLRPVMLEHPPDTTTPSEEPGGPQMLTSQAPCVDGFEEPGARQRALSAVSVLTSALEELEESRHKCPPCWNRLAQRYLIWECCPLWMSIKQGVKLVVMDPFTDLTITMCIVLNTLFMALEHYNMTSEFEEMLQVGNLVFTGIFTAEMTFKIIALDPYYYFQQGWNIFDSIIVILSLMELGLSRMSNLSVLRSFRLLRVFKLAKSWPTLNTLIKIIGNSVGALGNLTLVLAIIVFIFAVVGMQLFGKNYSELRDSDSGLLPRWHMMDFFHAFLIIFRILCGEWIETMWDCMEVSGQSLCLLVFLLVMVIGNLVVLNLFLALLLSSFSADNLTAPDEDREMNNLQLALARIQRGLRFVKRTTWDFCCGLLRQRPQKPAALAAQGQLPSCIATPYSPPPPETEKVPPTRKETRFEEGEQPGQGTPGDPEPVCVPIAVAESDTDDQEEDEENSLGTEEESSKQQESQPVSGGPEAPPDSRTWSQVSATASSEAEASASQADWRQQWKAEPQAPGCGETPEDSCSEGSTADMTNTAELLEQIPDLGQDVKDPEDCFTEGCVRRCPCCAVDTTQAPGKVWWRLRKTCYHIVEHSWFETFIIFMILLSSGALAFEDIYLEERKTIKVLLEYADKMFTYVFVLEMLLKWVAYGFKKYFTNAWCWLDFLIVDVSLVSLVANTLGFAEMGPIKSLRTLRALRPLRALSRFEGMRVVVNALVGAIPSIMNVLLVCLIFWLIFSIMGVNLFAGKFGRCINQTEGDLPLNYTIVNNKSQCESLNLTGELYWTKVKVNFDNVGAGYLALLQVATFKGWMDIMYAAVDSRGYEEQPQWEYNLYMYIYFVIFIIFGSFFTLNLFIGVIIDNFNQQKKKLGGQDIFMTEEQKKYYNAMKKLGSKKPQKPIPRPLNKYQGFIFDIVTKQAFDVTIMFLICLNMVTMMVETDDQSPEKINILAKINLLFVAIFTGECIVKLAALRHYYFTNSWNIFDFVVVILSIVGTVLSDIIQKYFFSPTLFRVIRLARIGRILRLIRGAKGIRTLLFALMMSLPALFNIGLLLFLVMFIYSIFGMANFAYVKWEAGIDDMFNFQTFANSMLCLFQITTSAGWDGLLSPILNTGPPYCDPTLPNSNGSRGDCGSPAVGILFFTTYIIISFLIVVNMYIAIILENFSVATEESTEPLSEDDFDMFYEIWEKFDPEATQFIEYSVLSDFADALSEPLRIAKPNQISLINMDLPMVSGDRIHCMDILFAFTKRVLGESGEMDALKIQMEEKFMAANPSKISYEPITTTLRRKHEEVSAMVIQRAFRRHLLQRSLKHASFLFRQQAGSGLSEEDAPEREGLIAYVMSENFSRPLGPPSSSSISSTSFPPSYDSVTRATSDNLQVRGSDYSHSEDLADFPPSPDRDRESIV

The text below walks through data of PMC12836348, “Alanine Mutagenesis Identifies Specific Amino Acids of Nemertide Alpha‑1 Activity and Its Binding to Target Receptors” (Journal of Natural Products, 2025).

Entries after “also recorded” stand apart in the source; their conditions may differ.

Usually EC50 stands for the concentration that produces a half-maximal response. Turning to `CC[C@H](C)[C@@H]1NC(=O)[C@@H](NC(=O)CN)CSSC[C@@H]2NC(=O)[C@@H]3CSSC[C@@H](C(=O)N[C@@H](CC(N)=O)C(=O)N4C[C@H](O)C[C@H]4C(=O)N4C[C@H](O)C[C@H]4C(=O)N[C@@H](CC(N)=O)C(=O)N[C@@H](CCC(N)=O)C(=O)O)NC(=O)[C@H](CCCCN)NC(=O)[C@H](Cc4ccccc4)NC(=O)[C@H](CC(N)=O)NC(=O)[C@H](Cc4c[nH]c5ccccc45)NC(=O)CNC(=O)[C@H](CSSC[C@H](NC(=O)[C@H](Cc4ccccc4)NC(=O)[C@H](CO)NC(=O)CNC(=O)[C@H]([C@@H](C)O)NC(=O)[C@H](C)NC1=O)C(=O)N[C@@H]([C@@H](C)O)C(=O)N[C@@H](CC(C)C)C(=O)N[C@@H](CO)C(=O)N[C@@H](CCCCN)C(=O)NCC(=O)N3)NC(=O)[C@H](CC(N)=O)NC(=O)[C@H](CCCCN)NC(=O)[C@H]([C@@H](C)O)NC2=O` [Alpha-1, nemertide alpha-1, reference compound], the EC50 amounted to 8.6 ± 2.9 nM in test [1] and 10.3 nM in test [1] (listed as alpha-1).
For the molecule `CC[C@H](C)[C@@H]1NC(=O)[C@@H](NC(=O)CN)CSSC[C@@H]2NC(=O)[C@@H]3CSSC[C@@H](C(=O)N[C@@H](CC(N)=O)C(=O)N4C[C@H](O)C[C@H]4C(=O)N4C[C@H](O)C[C@H]4C(=O)N[C@@H](CC(N)=O)C(=O)N[C@@H](CCC(N)=O)C(=O)O)NC(=O)[C@H](CCCCN)NC(=O)[C@H](Cc4ccccc4)NC(=O)[C@H](CC(N)=O)NC(=O)[C@H](Cc4c[nH]c5ccccc45)NC(=O)CNC(=O)[C@H](CSSC[C@H](NC(=O)[C@H](C)NC(=O)[C@H](CO)NC(=O)CNC(=O)[C@H]([C@@H](C)O)NC(=O)[C@H](C)NC1=O)C(=O)N[C@@H]([C@@H](C)O)C(=O)N[C@@H](CC(C)C)C(=O)N[C@@H](CO)C(=O)N[C@@H](CCCCN)C(=O)NCC(=O)N3)NC(=O)[C@H](CC(N)=O)NC(=O)[C@H](CCCCN)NC(=O)[C@H]([C@@H](C)O)NC2=O` [Peptide F8A], the EC50 in test [1] came out at 68.7 ± 12.8 nM.
`CC(C)C[C@@H]1NC(=O)[C@H]([C@@H](C)O)NC(=O)[C@@H]2CSSC[C@@H]3NC(=O)[C@H](CC(N)=O)NC(=O)[C@H](CCCCN)NC(=O)[C@H]([C@@H](C)O)NC(=O)[C@H](CSSC[C@H](NC(=O)CN)C(=O)N[C@@H](C)C(=O)N[C@@H](C)C(=O)N[C@@H]([C@@H](C)O)C(=O)NCC(=O)N[C@@H](CO)C(=O)N[C@@H](Cc4ccccc4)C(=O)N2)NC(=O)[C@H](CSSC[C@@H](C(=O)N[C@@H](CC(N)=O)C(=O)N2C[C@H](O)C[C@H]2C(=O)N2C[C@H](O)C[C@H]2C(=O)N[C@@H](CC(N)=O)C(=O)N[C@@H](CCC(N)=O)C(=O)O)NC(=O)[C@H](CCCCN)NC(=O)[C@H](Cc2ccccc2)NC(=O)[C@H](CC(N)=O)NC(=O)[C@H](Cc2c[nH]c4ccccc24)NC(=O)CNC3=O)NC(=O)CNC(=O)[C@H](CCCCN)NC(=O)[C@H](CO)NC1=O` [Peptide I3A] showed an EC50 in test [1] of 49.7 ± 9.1 nM.
Turning to `CC[C@H](C)[C@@H]1NC(=O)[C@@H](NC(=O)CN)CSSC[C@@H]2NC(=O)[C@@H]3CSSC[C@@H](C(=O)N[C@@H](CC(N)=O)C(=O)N4C[C@H](O)C[C@H]4C(=O)N4C[C@H](O)C[C@H]4C(=O)N[C@@H](CC(N)=O)C(=O)N[C@@H](CCC(N)=O)C(=O)O)NC(=O)[C@H](CCCCN)NC(=O)[C@H](Cc4ccccc4)NC(=O)[C@H](CC(N)=O)NC(=O)[C@H](Cc4c[nH]c5ccccc45)NC(=O)CNC(=O)[C@H](CSSC[C@H](NC(=O)[C@H](Cc4ccccc4)NC(=O)[C@H](CO)NC(=O)CNC(=O)[C@H]([C@@H](C)O)NC(=O)[C@H](C)NC1=O)C(=O)N[C@@H]([C@@H](C)O)C(=O)N[C@@H](CC(C)C)C(=O)N[C@@H](CO)C(=O)N[C@@H](C)C(=O)NCC(=O)N3)NC(=O)[C@H](CC(N)=O)NC(=O)[C@H](CCCCN)NC(=O)[C@H]([C@@H](C)O)NC2=O` [Peptide K13A], in test [1], the EC50 came out at 386 ± 32.4 nM.
The same measure, in the same setting: under `CC[C@H](C)[C@@H]1NC(=O)[C@@H](NC(=O)CN)CSSC[C@@H]2NC(=O)[C@@H]3CSSC[C@@H](C(=O)N[C@@H](CC(N)=O)C(=O)N4C[C@H](O)C[C@H]4C(=O)N4C[C@H](O)C[C@H]4C(=O)N[C@@H](CC(N)=O)C(=O)N[C@@H](CCC(N)=O)C(=O)O)NC(=O)[C@H](CCCCN)NC(=O)[C@H](Cc4ccccc4)NC(=O)[C@H](CC(N)=O)NC(=O)[C@H](Cc4c[nH]c5ccccc45)NC(=O)CNC(=O)[C@H](CSSC[C@H](NC(=O)[C@H](Cc4ccccc4)NC(=O)[C@H](CO)NC(=O)CNC(=O)[C@H]([C@@H](C)O)NC(=O)[C@H](C)NC1=O)C(=O)N[C@@H]([C@@H](C)O)C(=O)N[C@@H](CC(C)C)C(=O)N[C@@H](CO)C(=O)N[C@@H](CCCCN)C(=O)NCC(=O)N3)NC(=O)[C@H](CC(N)=O)NC(=O)[C@H](C)NC(=O)[C@H]([C@@H](C)O)NC2=O` [Peptide K18A] stands 32.9 ± 10.9 nM.
Regarding `CC[C@H](C)[C@@H]1NC(=O)[C@@H](NC(=O)CN)CSSC[C@@H]2NC(=O)[C@@H]3CSSC[C@@H](C(=O)N[C@@H](CC(N)=O)C(=O)N4C[C@H](O)C[C@H]4C(=O)N4C[C@H](O)C[C@H]4C(=O)N[C@@H](CC(N)=O)C(=O)N[C@@H](CCC(N)=O)C(=O)O)NC(=O)[C@H](C)NC(=O)[C@H](Cc4ccccc4)NC(=O)[C@H](CC(N)=O)NC(=O)[C@H](Cc4c[nH]c5ccccc45)NC(=O)CNC(=O)[C@H](CSSC[C@H](NC(=O)[C@H](Cc4ccccc4)NC(=O)[C@H](CO)NC(=O)CNC(=O)[C@H]([C@@H](C)O)NC(=O)[C@H](C)NC1=O)C(=O)N[C@@H]([C@@H](C)O)C(=O)N[C@@H](CC(C)C)C(=O)N[C@@H](CO)C(=O)N[C@@H](CCCCN)C(=O)NCC(=O)N3)NC(=O)[C@H](CC(N)=O)NC(=O)[C@H](CCCCN)NC(=O)[C@H]([C@@H](C)O)NC2=O` [Peptide K25A], it took 455 ± 69.4 nM to reach a half-maximal effect in test [1] (EC50). Further, the “EC50 Nav1.5” value in test [2] was “no detectable activity; also recorded: inactive at the tested concentration”.
Turning to `CC[C@H](C)[C@@H]1NC(=O)[C@@H](NC(=O)CN)CSSC[C@@H]2NC(=O)[C@@H]3CSSC[C@@H](C(=O)N[C@@H](CC(N)=O)C(=O)N4C[C@H](O)C[C@H]4C(=O)N4C[C@H](O)C[C@H]4C(=O)N[C@@H](CC(N)=O)C(=O)N[C@@H](CCC(N)=O)C(=O)O)NC(=O)[C@H](CCCCN)NC(=O)[C@H](Cc4ccccc4)NC(=O)[C@H](C)NC(=O)[C@H](Cc4c[nH]c5ccccc45)NC(=O)CNC(=O)[C@H](CSSC[C@H](NC(=O)[C@H](Cc4ccccc4)NC(=O)[C@H](CO)NC(=O)CNC(=O)[C@H]([C@@H](C)O)NC(=O)[C@H](C)NC1=O)C(=O)N[C@@H]([C@@H](C)O)C(=O)N[C@@H](CC(C)C)C(=O)N[C@@H](CO)C(=O)N[C@@H](CCCCN)C(=O)NCC(=O)N3)NC(=O)[C@H](CC(N)=O)NC(=O)[C@H](CCCCN)NC(=O)[C@H]([C@@H](C)O)NC2=O` [Peptide N23A], in test [1], the EC50 was 19.5 ± 3.4 nM.
